# scFv variants of Ab-14 (heavy chain) against a SARS-CoV-2 spike peptide

Source: Li et al. 2023 (doi:10.1038/s41467-023-39022-2), MIT Lincoln Laboratory and A-Alpha Bio; data file from the FLAb repository.

Binding partner: SARS-CoV-2 spike HR2 peptide, sequence PDVDLGDISGINAS.

Each scFv is VH, a (GGGGS)3 linker, VL, as in the parent Ab-14, and differs from it in the CDRs of the heavy chain only.
VH: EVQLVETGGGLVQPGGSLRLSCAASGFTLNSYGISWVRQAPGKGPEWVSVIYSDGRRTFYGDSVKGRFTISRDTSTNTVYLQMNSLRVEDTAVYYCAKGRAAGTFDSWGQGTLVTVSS
VL: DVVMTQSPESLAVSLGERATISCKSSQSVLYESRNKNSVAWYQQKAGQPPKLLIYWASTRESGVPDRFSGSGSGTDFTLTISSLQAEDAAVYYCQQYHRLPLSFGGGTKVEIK

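The starting antibody came from a phage panning campaign against this peptide. The variants were designed computationally from a first round of random CDR variants and then made and measured. Their group label is 14H_GP_HC (GP: Gaussian process model; HC: hill climbing; a sequence that several methods proposed may carry one label only). The scFvs were displayed on barcoded MATa yeast, the peptide on MATalpha yeast. Binding brings cells together so that they mate, and sequencing counts the barcode pairs among the diploids. The ratio of observed to expected reads was calibrated, replicate by replicate, on BCL2-family standards whose Kd was known from biolayer interferometry. The assay was run in six technical replicates.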

The parent's heavy chain CDRs are GFTLNSYGIS, VIYSDGRRTFYGDSVK, GRAAGTFDS; each variant's own CDRs replace them letter for letter.
Values are log10 of the apparent Kd in nM; lower means stronger binding.
"ND" means that the variant was in the library but no mating with the target was seen in that replicate; the authors take this as a sign of poor binding, and no number exists.
The authors' rule: three or more of the six replicates give a measured affinity, fewer mean a poor binder.
The range of this assay differs from that of the first round, and the authors advise against merging the two.
Three control strains display no target. For all heavy chain designs, 1% of the pairings with them gave a signal, with a median of 2.08 and one signal in twenty below 0.84, so weak values seen in few replicates may be background. For each scFv, signals with the empty controls are counted beside the result, with their mean in brackets.

| CDR-H1 | CDR-H2 | CDR-H3 | log10 Kd, replicates | signal with controls |
|---|---|---|---|---|
| GFTLNEYGIS | VIYSDGRRTFYGDSVK | GRAAWTFIL | ND ND ND ND ND ND | 0 of 18 |
| GFTLNEYGIS | VIYSDGRRTFYGDSVK | GCIAGTFDS | 0.80 ND 1.65 1.34 ND 2.38 | 0 of 18 |
| GFSLNSYGIS | VIYSDGRRTFYIDSVK | GMLAGTFDS | 0.64 0.05 1.29 0.10 -0.46 0.59 | 0 of 18 |
| GFDLNSYGIS | VIYSDGRRTFYSDSVK | GEAGGTFDS | 2.80 0.94 1.44 1.61 1.13 2.45 | 0 of 18 |
| GFRLNEYGIS | VIYSDGRRTFYADSVK | GRAAGTFDS | 0.78 0.99 0.56 0.74 0.56 0.78 | 0 of 18 |
| GFDLNSYGIS | VIYSDGRRTFYGDSVK | GRAAGKFRS | ND ND ND ND ND ND | 0 of 18 |
| GFSLNDYGIS | VIYSDGRRTFYIDTVK | GNAAGTFDS | -0.04 0.47 -0.01 0.47 0.09 0.44 | 0 of 18 |
| GFTLNEYGIS | VIYSDGRRTFYHDSVK | GRAAGHFDS | ND ND ND ND ND ND | 0 of 18 |
| GFTLNEYGIS | VIYSDGRRTFYGDSVK | GRMAGTFDI | 1.36 1.08 0.77 0.88 0.71 0.85 | 0 of 18 |
| GFELNDYGIS | VIYSDGRRTFYKDSVK | GRAAGTFDS | 1.10 0.35 0.18 -0.22 0.52 0.54 | 1 of 18 (3.56) |
| GFTLNEYGIS | VIYSDGRRTFYGDSVK | GRWAGTFDD | ND 1.08 1.45 2.11 1.82 1.14 | 0 of 18 |
| GFTLNDYGIS | VIYSDGRRTAYGDSVK | GKAAGTFDS | 0.23 -0.23 -0.06 0.39 -0.12 -0.05 | 0 of 18 |
| GFTLEKYGIS | VIYSDGRRTFYGDSVK | GRAAGTFTS | ND ND ND ND ND ND | 0 of 18 |
| KFTLNEYGIS | VIYSDGRRTFYTDSVK | GRQAGTFDS | 1.40 1.36 1.51 1.70 2.39 ND | 0 of 18 |
| LFTLNEYGIS | VIYSDGRRTFYVDSVK | GRTAGTFDS | -0.38 -0.01 -0.54 -0.12 0.18 -0.47 | 0 of 18 |
| GFTLNSYGIS | VIYADGRRTFYGDSVK | GNAAGTFKM | ND ND ND 2.58 ND ND | 1 of 18 (1.48) |
| GFELNDYGIS | VIYSDGRRTMYWDSVK | GRAAGTFDS | ND ND ND ND ND ND | 0 of 18 |
| GFTLNSYGIS | VIYADGRRTFYGDSVK | GTAAGTFKL | -0.77 -0.69 -0.70 -0.67 -0.74 -0.48 | 0 of 18 |
| GFTLNSYGIS | VIYSDGRRTAYMDSVK | GRAAGTFDS | 0.96 0.36 1.38 1.34 0.66 0.85 | 0 of 18 |
| GFTLNEYGIS | VIYADGRRTFYGDSVK | GRAAATFDI | ND ND ND ND ND ND | 0 of 18 |
| GFKLNEYGIS | VIYSDGRRTFYDDSVK | GRHAGTFDS | 0.80 ND 0.77 0.59 ND ND | 0 of 18 |
| GFTLNSYGIS | VIYSDGRRTFYGDSVK | GRAAGTFTD | ND ND ND ND ND ND | 0 of 18 |
| GFDLNDYGIS | VIYSDGRRTFYKDSVK | GRAAGTFDS | 0.47 0.36 0.64 0.08 0.58 0.05 | 0 of 18 |
| GFTLNEYGIS | VIYSDGRRTFYTDSVK | GFAAGTFDK | 0.79 0.51 0.02 0.10 0.73 0.26 | 2 of 18 (1.15) |
| GFTLNEYGIS | VIYSDGRRTFYGDSVK | GRAAGTFGT | 2.14 1.77 1.47 1.44 1.23 2.30 | 1 of 18 (3.18) |
| GFDLNSYGIS | VIYSDGRRTFYGDSVK | GRTAQTFDS | ND 1.41 ND ND ND ND | 0 of 18 |
| GFSLNEYGIS | VIYSDGRRTFYGDSVK | GRNAGTFIS | ND ND ND ND ND ND | 0 of 18 |
| GFTLNEYGIS | VIYSDGRRTFYQDSVK | GRFAGTFDI | 1.02 1.83 1.14 1.45 1.13 1.14 | 0 of 18 |
| GFDLNSYGIS | VIYSDGRRTFYGDSVK | GRAAWTFIS | ND ND ND ND ND ND | 0 of 18 |
| GFTLNSYGIS | VIYSDGYRTFYADSVK | GRAAGTFDS | 1.52 1.27 1.89 1.97 1.63 1.30 | 0 of 18 |
| GFTLDSYGIS | VIYADGRRTFYGDSVK | GRAAGTFGS | ND ND ND 1.60 1.16 ND | 1 of 18 (0.92) |
| GFTLNDYGIS | VIYSDGRRMFYIDSVK | GRAAGTFDS | 0.42 1.66 ND 0.23 2.06 -0.06 | 0 of 18 |
| GFTLNEYGIS | VIYSDGRRTFYGDSVK | GRAAGTFKF | ND ND ND ND ND ND | 0 of 18 |
| GFALNEYGIS | VIYSDGRRTFYTDSVK | GEQAGTFDS | 1.79 ND 1.00 0.35 ND 1.72 | 0 of 18 |
| GFWLNEYGIS | VIYADGRRTFYGDSVK | GRAAGTFIS | ND ND ND ND ND ND | 0 of 18 |
| GFRLNSYGIS | VIYSDGRRTFYHDSVK | GQLAGTFDS | 2.44 1.35 2.37 1.72 1.70 1.62 | 0 of 18 |
| GFTLNEYGIS | VIYSDGRRTFYGDSVK | GRAAGTFKR | -0.02 -0.31 -0.21 -0.06 2.09 0.19 | 0 of 18 |
| GFTLNSYGIS | VIYSDGRRTFYSDSVK | GRTGGTFDT | 0.68 0.27 0.14 0.78 1.09 0.71 | 0 of 18 |
| GFDLNSYGIS | VIYSDGRRTFYVDSVK | GRAAGTFNM | ND ND ND ND ND ND | 0 of 18 |
| GFQLNEYGIS | VIYSDGRRTFYHDSVK | GRAAGTFDQ | 0.26 0.65 0.28 0.13 0.09 0.04 | 3 of 18 (1.84) |
| GFQLNSYGIS | VIYSDGRRTFYSDSVK | GHVAGTFDS | 0.39 -0.07 0.14 0.13 0.01 0.44 | 0 of 18 |
| GFTLNSYGIS | VIYSDGRRTAYSDSVK | GHAAGTFDS | 0.86 0.62 1.29 0.20 0.92 1.25 | 0 of 18 |
| GFSLNQYGIS | VIYSDGRRTFYSDSVK | GEAAGTFDK | 0.12 0.28 -0.41 0.20 1.36 1.02 | 0 of 18 |
| GFTLNEYGIS | VIYSDGRRTFYGDDVK | GRAAVTFDM | ND ND ND ND ND ND | 0 of 18 |

Extract of 2 entries:

CDR-H1	CDR-H2	CDR-H3	log10 Kd, replicates	signal with controls
GFSLNSYGIS	VIYSDGRRTFYIDSVK	GMLAGTFDS	0.64 0.05 1.29 0.10 -0.46 0.59	0 of 18
GFTLNEYGIS	VIYSDGRRTFYGDSVK	GRAAWTFIL	ND ND ND ND ND ND	0 of 18